Apparent affinities of Ab-95 variants for a coronavirus HR2 peptide

Reference: Engelhart et al. 2022, doi:10.1038/s41597-022-01779-4. File: FLAb, binding data.

Antigen: PDVDLGDISGINAS, a 14-residue peptide of the SARS-CoV-2 spike HR2 region.

Parent scFv Ab-95: VH joined to VL by the linker GGGGSGGGGSGGGGS. Changes lie in the light chain CDRs alone.
VH: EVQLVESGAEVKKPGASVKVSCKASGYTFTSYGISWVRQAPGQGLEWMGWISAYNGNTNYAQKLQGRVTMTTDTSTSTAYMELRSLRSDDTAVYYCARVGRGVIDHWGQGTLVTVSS
VL: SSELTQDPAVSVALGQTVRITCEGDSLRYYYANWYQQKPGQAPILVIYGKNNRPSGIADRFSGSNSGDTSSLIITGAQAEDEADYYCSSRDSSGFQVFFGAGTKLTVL

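The parent was found by panning a naive human phage display library on the peptide. In library AAYL52, one, two or three CDR residues were substituted; doubles and triples were drawn at random. AlphaSeq pools MATa yeast showing the antibodies with MATalpha yeast showing the peptide. After mating in shaken culture at 30 °C for 16 h, diploids were selected and their barcode pairs sequenced. A regression on co-assayed BCL2-family reference pairs converts the normalised counts of each replicate to an apparent Kd. The assay was run in three technical replicates.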

Positions count from residue 1 of the parent VL; R53H puts H in place of R.
The read-out is the apparent dissociation constant on a log10 scale (nM): the lower, the stronger.
An entry "ND" has no value in the source: the pair was not observed among the diploids in that replicate. This suggests poor binding but is not conclusive.
Nonspecific signal, from three strains lacking the peptide, appeared in 28% of pairings of library AAYL52, centred on 3.91 (5% of these signals below 2.90); values are not corrected for it. For each scFv, signals with the empty controls are counted beside the result, with their mean in brackets.

| changes | replicates, log10 nM | empty controls |
|---|---|---|
| R53H G94H F95C | 2.94 3.61 2.91 | 1 of 9 (4.36) |
| E23I S55G S92Y | 2.59 3.37 2.93 | 1 of 9 (2.93) |
| G24Q G49L | ND ND ND | 2 of 9 (4.01) |
| E23P S26F L27W | 3.30 2.90 3.84 | 6 of 9 (3.96) |
| N51I Q96M | 3.20 ND 4.28 | 3 of 9 (3.81) |
| D25A Y29L N51H | 2.92 3.35 3.62 | 6 of 9 (3.96) |
| K50C R53C P54R | ND 4.37 ND | 4 of 9 (4.18) |
| K50T S55P R90C | ND 4.57 ND | 2 of 9 (4.06) |
| S26R P54S F95I | ND ND ND | 3 of 9 (3.94) |
| R28I N33E F95G | ND ND ND | 1 of 9 (3.55) |
| D91V | 4.57 4.27 4.19 | 2 of 9 (4.04) |
| K50Q N51M S93A | 2.40 2.65 2.27 | 4 of 9 (3.97) |
| R28S S88F G94D | 3.28 ND 3.58 | 1 of 9 (3.10) |
| Y29N D91E G94K | 2.40 1.94 2.24 | 3 of 9 (4.10) |
| E23M Y30N Y31P | 1.15 0.97 0.56 | 2 of 9 (3.88) |
| N33G D91E Q96I | ND ND ND | 2 of 9 (3.77) |
| P54I S55E G94P | 2.77 2.69 2.69 | 3 of 9 (4.80) |
| E23F Y30I Y31H | 2.72 2.76 2.90 | 2 of 9 (4.66) |
| E23R S26I G94V | 2.45 2.96 ND | 6 of 9 (4.31) |
| A32E S88P S93Y | 3.83 4.71 ND | 3 of 9 (3.98) |
| E23S S26T F98S | 2.67 2.93 3.79 | 3 of 9 (3.82) |
| S55I R90A | ND ND ND | 3 of 9 (4.00) |
| P54W V97P F98E | ND ND ND | 2 of 9 (3.43) |
| Y29F R53L R90P | 3.63 4.31 2.58 | 4 of 9 (3.62) |
| D25R K50C R90E | ND 5.19 3.11 | 5 of 9 (3.96) |
| D25G G49W | ND ND ND | 0 of 9 |
| L27G Y31W S55D | 3.08 3.13 2.58 | 2 of 9 (3.61) |
| S89R D91Y S93G | 2.31 1.98 1.45 | 3 of 9 (4.12) |
| E23Q S26L D91S | ND ND ND | 1 of 9 (3.46) |
| Y31N S89A F95M | 1.15 0.98 0.56 | 2 of 9 (4.03) |
| Y29H N52S V97Q | 2.40 2.02 1.85 | 3 of 9 (4.04) |
| D25K G49H D91W | ND 4.22 3.06 | 3 of 9 (3.98) |
| D91N | ND 3.29 ND | 2 of 9 (3.56) |
| R28A N52Y P54R | 3.41 3.81 ND | 6 of 9 (3.88) |
| G49M N52Q S93Y | ND ND ND | 0 of 9 |
| S26K G49C S89G | ND 5.35 ND | 2 of 9 (4.17) |
| Y30S Y31T D91V | 1.29 1.49 1.25 | 4 of 9 (4.37) |
| S88I G94C | 2.32 1.87 1.48 | 0 of 9 |
| E23S S92P S93G | 2.06 2.54 2.15 | 6 of 9 (3.72) |
| N33C K50Y S92D | 4.91 ND ND | 3 of 9 (4.43) |
| E23N S89I R90A | 3.14 2.82 2.62 | 3 of 9 (3.55) |

From the list, the first 3 with no signal in any replicate:

{"changes": "G24Q G49L", "replicates, log10 nM": "ND ND ND", "empty controls": "2 of 9 (4.01)"}
{"changes": "S26R P54S F95I", "replicates, log10 nM": "ND ND ND", "empty controls": "3 of 9 (3.94)"}
{"changes": "R28I N33E F95G", "replicates, log10 nM": "ND ND ND", "empty controls": "1 of 9 (3.55)"}